Experimental findings from ChEMBL document CHEMBL4011650, “3-Hydroxy-1H-quinazoline-2,4-dione as a New Scaffold To Develop Potent and Selective Inhibitors of the Tumor-Associated Carbonic Anhydrases IX and XII” (J Med Chem, 2017) are described below.

Protein sequences, listed by entry. Tags and fused reporters are not part of them. Lines headed by an entry give the natural chain unless they say otherwise; changes in a name come on top.
UniProt O43570: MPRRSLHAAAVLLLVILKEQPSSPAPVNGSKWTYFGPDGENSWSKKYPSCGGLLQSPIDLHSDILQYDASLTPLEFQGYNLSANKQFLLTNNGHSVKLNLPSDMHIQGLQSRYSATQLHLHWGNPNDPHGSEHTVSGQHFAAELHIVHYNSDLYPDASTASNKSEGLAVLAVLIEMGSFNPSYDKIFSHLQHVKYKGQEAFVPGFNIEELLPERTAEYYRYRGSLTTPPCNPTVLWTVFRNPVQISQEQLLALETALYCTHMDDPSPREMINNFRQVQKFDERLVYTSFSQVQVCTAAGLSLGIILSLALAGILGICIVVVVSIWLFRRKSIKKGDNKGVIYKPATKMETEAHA

The target of the test is Carbonic anhydrase 12 (Homo sapiens, UniProt O43570).

Molecules are shown by their SMILES.

As usually defined, the Ki is the dissociation constant of the complex between target and ligand, obtained from inhibition or displacement. A low value points to a stronger hold on the target. In turn, `O=C(Nc1ccccc1)Nc1ccc2[nH]c(=O)n(O)c(=O)c2c1` gave an inhibition constant Ki of 0.732 µM.
